Data reported in ChEMBL document CHEMBL1133166, “Cyclin-dependent kinase inhibitors: useful targets in cell cycle regulation” (J Med Chem, 2000).

By UniProt entry, the sequences of proteins in these tests, tags left out. Where a name states a change or a piece, a line headed by the entry shows the natural chain unless it says otherwise.
UniProt P24864, whole entry, looked up: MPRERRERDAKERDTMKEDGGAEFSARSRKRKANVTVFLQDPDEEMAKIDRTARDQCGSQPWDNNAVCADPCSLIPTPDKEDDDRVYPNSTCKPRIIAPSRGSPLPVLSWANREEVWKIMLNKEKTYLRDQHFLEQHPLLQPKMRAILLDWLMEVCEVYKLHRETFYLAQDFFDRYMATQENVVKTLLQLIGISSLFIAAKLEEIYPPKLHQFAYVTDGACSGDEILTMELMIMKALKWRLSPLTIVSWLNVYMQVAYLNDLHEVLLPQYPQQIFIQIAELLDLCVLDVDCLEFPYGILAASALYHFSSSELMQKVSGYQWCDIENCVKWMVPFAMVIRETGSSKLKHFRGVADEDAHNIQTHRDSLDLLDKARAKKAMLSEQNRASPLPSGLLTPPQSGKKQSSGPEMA
UniProt O96020, whole entry, looked up: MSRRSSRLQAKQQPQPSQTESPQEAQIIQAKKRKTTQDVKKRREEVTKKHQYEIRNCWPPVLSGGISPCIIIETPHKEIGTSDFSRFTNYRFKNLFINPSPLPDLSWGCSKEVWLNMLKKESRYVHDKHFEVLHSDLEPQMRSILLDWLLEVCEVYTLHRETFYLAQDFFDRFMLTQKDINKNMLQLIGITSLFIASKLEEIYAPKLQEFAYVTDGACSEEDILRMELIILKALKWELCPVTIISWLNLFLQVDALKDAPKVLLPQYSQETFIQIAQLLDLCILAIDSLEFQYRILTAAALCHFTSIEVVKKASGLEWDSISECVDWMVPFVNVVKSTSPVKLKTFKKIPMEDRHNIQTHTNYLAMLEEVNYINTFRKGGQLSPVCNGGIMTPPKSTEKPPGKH
UniProt P06493, whole entry, looked up: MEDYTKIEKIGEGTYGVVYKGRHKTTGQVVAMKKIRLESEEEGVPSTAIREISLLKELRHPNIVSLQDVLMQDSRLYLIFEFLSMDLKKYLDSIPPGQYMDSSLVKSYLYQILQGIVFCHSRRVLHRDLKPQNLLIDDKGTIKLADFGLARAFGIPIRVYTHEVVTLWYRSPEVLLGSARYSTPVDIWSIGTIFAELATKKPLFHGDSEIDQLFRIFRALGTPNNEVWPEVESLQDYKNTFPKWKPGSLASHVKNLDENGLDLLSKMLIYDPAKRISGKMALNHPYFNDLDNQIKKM
UniProt P14635, whole entry, looked up: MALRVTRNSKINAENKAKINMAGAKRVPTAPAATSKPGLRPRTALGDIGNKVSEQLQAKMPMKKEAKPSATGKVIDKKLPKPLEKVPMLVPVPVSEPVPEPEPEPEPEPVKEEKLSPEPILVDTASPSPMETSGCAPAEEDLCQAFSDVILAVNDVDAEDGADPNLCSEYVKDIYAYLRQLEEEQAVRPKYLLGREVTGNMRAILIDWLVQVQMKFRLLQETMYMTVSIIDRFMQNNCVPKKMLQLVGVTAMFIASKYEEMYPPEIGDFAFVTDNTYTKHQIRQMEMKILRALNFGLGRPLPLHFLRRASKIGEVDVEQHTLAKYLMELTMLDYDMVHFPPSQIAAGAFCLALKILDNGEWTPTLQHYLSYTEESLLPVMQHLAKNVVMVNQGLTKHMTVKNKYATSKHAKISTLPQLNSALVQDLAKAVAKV
UniProt Q8WWL7, whole entry, looked up: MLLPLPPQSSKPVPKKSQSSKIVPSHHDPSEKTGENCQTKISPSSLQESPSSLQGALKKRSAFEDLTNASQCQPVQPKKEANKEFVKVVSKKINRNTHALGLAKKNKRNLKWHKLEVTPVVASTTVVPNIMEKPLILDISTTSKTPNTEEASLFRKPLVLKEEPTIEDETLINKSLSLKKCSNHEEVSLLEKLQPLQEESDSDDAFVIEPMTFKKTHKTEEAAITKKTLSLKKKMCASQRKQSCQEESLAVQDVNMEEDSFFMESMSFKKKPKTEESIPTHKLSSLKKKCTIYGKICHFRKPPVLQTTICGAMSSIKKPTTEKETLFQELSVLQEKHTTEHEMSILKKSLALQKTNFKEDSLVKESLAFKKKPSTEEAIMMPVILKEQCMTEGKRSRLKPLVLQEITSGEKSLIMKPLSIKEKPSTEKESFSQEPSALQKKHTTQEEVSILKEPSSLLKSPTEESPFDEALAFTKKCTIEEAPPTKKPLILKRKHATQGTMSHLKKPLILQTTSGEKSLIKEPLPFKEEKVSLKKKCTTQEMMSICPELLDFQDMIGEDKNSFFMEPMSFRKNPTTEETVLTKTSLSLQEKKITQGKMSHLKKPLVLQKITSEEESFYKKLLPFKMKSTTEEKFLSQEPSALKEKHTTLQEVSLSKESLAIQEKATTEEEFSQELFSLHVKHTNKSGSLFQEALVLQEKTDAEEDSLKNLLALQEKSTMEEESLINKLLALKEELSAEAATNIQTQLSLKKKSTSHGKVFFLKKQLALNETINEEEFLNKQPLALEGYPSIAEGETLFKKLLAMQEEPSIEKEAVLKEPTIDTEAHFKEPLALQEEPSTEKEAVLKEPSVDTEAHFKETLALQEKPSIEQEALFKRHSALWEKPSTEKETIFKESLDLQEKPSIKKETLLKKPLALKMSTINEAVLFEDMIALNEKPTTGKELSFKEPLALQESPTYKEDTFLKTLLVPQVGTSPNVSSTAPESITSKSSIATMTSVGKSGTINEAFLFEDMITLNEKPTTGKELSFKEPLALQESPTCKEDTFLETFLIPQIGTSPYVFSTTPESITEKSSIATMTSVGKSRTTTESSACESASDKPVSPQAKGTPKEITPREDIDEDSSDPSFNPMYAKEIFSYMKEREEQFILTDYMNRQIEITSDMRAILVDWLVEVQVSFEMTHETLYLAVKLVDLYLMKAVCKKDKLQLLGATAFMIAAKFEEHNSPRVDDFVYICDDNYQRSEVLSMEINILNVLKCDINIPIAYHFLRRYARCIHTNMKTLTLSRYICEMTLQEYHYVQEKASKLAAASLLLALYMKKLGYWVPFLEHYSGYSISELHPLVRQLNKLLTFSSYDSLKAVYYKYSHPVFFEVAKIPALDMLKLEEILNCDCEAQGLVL
UniProt O95067, whole entry, looked up: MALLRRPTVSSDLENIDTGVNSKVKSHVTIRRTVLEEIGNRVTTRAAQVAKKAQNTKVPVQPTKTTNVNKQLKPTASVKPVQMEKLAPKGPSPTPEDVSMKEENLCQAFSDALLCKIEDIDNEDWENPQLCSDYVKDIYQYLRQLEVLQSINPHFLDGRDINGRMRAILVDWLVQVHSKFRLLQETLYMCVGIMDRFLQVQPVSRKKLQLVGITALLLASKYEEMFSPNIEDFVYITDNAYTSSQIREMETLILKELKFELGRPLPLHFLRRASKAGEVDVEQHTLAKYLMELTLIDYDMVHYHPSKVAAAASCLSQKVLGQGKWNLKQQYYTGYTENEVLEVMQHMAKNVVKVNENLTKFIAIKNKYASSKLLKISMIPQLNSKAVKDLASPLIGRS
UniProt P11802: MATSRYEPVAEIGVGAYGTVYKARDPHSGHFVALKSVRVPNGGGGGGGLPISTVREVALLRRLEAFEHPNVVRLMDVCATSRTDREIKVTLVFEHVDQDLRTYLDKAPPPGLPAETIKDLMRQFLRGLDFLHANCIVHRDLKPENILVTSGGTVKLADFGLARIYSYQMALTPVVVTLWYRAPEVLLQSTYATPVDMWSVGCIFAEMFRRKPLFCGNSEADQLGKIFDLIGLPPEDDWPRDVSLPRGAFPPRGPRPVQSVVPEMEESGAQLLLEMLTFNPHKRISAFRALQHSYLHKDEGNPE
UniProt P24385, whole entry, looked up: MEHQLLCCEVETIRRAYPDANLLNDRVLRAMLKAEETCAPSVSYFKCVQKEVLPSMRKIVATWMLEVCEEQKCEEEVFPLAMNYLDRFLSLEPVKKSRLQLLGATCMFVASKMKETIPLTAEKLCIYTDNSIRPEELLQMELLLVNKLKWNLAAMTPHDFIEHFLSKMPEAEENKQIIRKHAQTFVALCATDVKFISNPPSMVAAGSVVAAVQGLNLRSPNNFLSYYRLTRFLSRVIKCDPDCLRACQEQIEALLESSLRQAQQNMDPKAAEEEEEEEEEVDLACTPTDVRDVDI
UniProt P30281: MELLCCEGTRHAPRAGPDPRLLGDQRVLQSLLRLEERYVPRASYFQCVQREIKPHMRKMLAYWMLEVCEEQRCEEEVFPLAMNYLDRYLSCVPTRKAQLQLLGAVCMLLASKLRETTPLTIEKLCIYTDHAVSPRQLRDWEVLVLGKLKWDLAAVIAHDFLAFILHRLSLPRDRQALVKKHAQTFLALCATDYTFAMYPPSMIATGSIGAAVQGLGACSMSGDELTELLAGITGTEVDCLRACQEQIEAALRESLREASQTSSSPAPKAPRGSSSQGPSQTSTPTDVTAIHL
UniProt P30279, whole entry, looked up: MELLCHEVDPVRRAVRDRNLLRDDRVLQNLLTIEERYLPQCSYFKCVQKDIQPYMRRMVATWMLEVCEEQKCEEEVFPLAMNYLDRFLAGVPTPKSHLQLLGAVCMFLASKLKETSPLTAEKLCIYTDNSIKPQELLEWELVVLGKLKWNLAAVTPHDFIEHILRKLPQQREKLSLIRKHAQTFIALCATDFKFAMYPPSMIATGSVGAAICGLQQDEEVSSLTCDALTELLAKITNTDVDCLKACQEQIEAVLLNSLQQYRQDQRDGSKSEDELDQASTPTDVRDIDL

Legend:
[1] = target: Cyclin-dependent kinase 2/cyclin E (Homo sapiens) (UniProt P24864+P24941+O96020); conditions: Asteroidea
[2] = target: T1, Cyclin-dependent kinase 1/cyclin B (Homo sapiens) (UniProt P06493+P14635+Q8WWL7+O95067); test: Inhibition of Cyclin-dependent kinase 1-cyclin B; format: protein-complex assay
[3] = target: Cyclin-dependent kinase 4/cyclin D (Homo sapiens) (UniProt P11802+P24385+P30281+P30279); test: Inhibition of Cyclin-dependent kinase 4-cyclin D; format: protein-complex assay
[4] = target: T1, Cyclin-dependent kinase 1/cyclin B (Homo sapiens); conditions: Asteroidea

Compound `CC(C)[C@H](CO)Nc1nc(Nc2ccc(C(=O)O)c(Cl)c2)c2ncn(C(C)C)c2n1` has an ID50 [1] of 9 nM.

`CN1CC[C@H](c2c(O)cc(O)c3c(=O)cc(-c4ccccc4Cl)oc23)[C@H](O)C1` showed an ID50 [2] of 400 nM and an ID50 [3] of 400 nM.

Work on `O=C1Cc2c([nH]c3ccccc23)-c2ccccc2N1` yielded an ID50 [4] of 7000 nM.
